Tested on: NC[C@H](F)CC(=O)O
Conditions: Sus scrofa

4-aminobutyrate aminotransferase, mitochondrial (Sus scrofa), P80147
Km: 49 µM
